Binding of CDR-mutated scFvs to a peptide of the spike HR2 region

Target peptide (SARS-CoV-2 spike, HR2 region): PDVDLGDISGINAS

Ab-14 is the parent antibody, in scFv form: VH, then three GGGGS repeats, then VL. The heavy chain is unchanged in all variants.
VH: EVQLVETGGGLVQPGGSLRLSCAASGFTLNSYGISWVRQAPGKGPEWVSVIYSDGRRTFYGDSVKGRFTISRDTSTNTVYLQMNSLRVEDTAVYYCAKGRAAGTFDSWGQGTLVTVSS
VL: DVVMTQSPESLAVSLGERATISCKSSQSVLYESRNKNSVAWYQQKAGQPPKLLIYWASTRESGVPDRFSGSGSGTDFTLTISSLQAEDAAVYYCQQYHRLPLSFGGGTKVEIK

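Designed CDR sequences, proposed from the first random library and measured here. Group labels follow the data file (Ctrl: baseline library sampled from a position-specific scoring matrix, with some repeated check sequences; En: ensemble of fine-tuned language models; GP: Gaussian process model; HC: hill climbing; Gen: genetic algorithm; Gibbs: Gibbs sampling; a sequence that several methods proposed may carry one label only). The scFvs were displayed on barcoded MATa yeast, the peptide on MATalpha yeast. Binding brings cells together so that they mate, and sequencing counts the barcode pairs among the diploids. The ratio of observed to expected reads was calibrated, replicate by replicate, on BCL2-family standards whose Kd was known from biolayer interferometry. Mating was done six times.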

Each variant is given by its three light chain CDRs, as the data file delimits them; those of the parent are KSSQSVLYESRNKNSVA, WASTRES, QQYHRLPLS.
Numbers give log10(Kd / nM), so 0 is 1 nM and 3 is 1 µM. Smaller is tighter.
The mean shown is taken over the replicates in which the pair was detected.
Where no diploid with the target was found in any replicate, the entry reads "nd": below detection, most likely a poor binder, though not proof of it.
The parent sequence was in this pool as ten entries: three were never detected, three once, and four in most replicates, with averages from 0.34 to 2.37.

CDR-L1	CDR-L2	CDR-L3	group	mean, log10 nM	seen in	control signals
SMFEKEYEELQPEDNIA	DATERMV	QQYFRLPLL	En_Gibbs	1.63	6 of 6	1 of 18
KVRQSVLYESRNKNSVA	DAFTRAS	QQYRELPLS	Ctrl	0.01	6 of 6	1 of 18
KVQMSWLMQSRMKNQVA	HASMRES	QQYHRLPLS	GP_Gibbs	1.72	1 of 6	0 of 18
KLEFSDLNESRNKNSVA	EASTRES	QQYHRLPLS	GP_Gibbs	0.11	6 of 6	3 of 18
KSSQSVNYESRNKNSVA	WASTRES	QQYHRLPLS	Ctrl	2.22	6 of 6	1 of 18
KSSMSVLYFSRNKNSVA	WASTRES	QQYHRLPLS	Ctrl	nd	0 of 6	1 of 18
KVSGSELYESRNKNSVA	EASTRES	QQYHRLPLS	GP_Gen	-0.19	6 of 6	1 of 18
KLSQSVLYESRAKNSVA	NASQRES	QQYHRLPLS	GP_Gen	0.62	6 of 6	0 of 18
TLMHHQDYQDEWKKSIA	NAIIKER	QQYSRLPLA	En_Gibbs	1.74	6 of 6	1 of 18
KLSQQHLYESRNKNSVA	NASLRLS	QCYHRLPLS	GP_Gibbs	1.17	6 of 6	1 of 18
KVSPSWLYESRNKNSVA	DASTRES	QQYHRLPLS	GP_Gen	-0.22	6 of 6	1 of 18
KLSQSVLYESRNKNSVA	NASTRES	QQYHRLPLM	GP_Gen	-0.28	6 of 6	1 of 18
KCSQSVGYESRNKNFVA	HASTRES	QQYHRLPLS	Ctrl	1.18	6 of 6	0 of 18
KIGSLTNGEKFQSNSVA	QTSTREE	QQYHRLPLS	En_HC	0.20	6 of 6	1 of 18
KLSQSVEYESRDKNAVA	DASTRMS	QQYHRLPLS	GP_Gibbs	-0.18	6 of 6	2 of 18
KLEQEYLYGKRNKNSVA	QASLRES	QQYHRLPLS	GP_Gibbs	0.55	6 of 6	0 of 18
KLLQNTGVGLRWANNVA	HMSTRED	QQYHRLPFV	En_Gen	0.81	6 of 6	1 of 18
KFSQSVLMESRNKNSVA	DASTRES	QQYHRLPLS	GP_Gen	-0.14	6 of 6	3 of 18
KLMMSGLYESRNSNSVA	NASTREQ	QQYHRLPLS	GP_Gibbs	-0.03	6 of 6	0 of 18
KSSQSTLYESRNKNSVA	HASTREQ	QQYHRLPLS	GP_HC	0.63	6 of 6	1 of 18
KSSQSWWYESRNKNSVA	GASTRES	QQYHRLPLS	GP_HC	-0.41	6 of 6	0 of 18
KISSATTFESRNKNSVA	ENSTRES	QSYHRLPLS	En_HC	nd	0 of 6	0 of 18
VMQMDNDRNNDITYAIA	DVTMREK	QQYNRLPLM	En_Gibbs	0.93	6 of 6	1 of 18
KLEQSIEYESRNKNSVA	NASTRES	QQYHRLPLS	GP_HC	0.00	6 of 6	0 of 18
KFSQSDDYEDRNKNSVA	SGSQRSS	QQYHRLPLS	GP_Gibbs	-0.16	6 of 6	0 of 18
KLYQSVPYESRNKNSVA	NASTRES	QQYHRLPLS	GP_Gen	-0.18	6 of 6	0 of 18
TISQSFLMENQFKNSVA	QASTRIS	QCYDRLPLS	En_HC	2.23	3 of 6	0 of 18
KFDQSVYYLSRNKNSVA	GASTRES	QQYHGLSLS	Ctrl	1.43	6 of 6	0 of 18
KSSQSVLYESRNKNSVA	WASMRES	QQYHRLPLS	Ctrl	2.85	6 of 6	0 of 18
KLSQSTLYESRNQNSVA	NASTRES	QQYHRLPLS	GP_HC	-0.33	6 of 6	0 of 18
HISESMYYQSRMKNNIA	EMSTRER	QHYHRLPLS	En_HC	1.14	6 of 6	1 of 18
HIQGYFNMPENANNSIA	EKHYRVR	QQYYRLPLA	En_Gibbs	0.98	6 of 6	2 of 18
KVSQSVLYESFNKNSVA	EASTRES	QQYHRLPLS	Ctrl	1.87	5 of 6	0 of 18
ALQMETLGQKQKQNNIA	NQDMRTA	QQYYMLPLV	En_Gibbs	0.01	6 of 6	0 of 18
KSSQSVLYESMNKNSVA	KASTRES	QQYHRLPLS	Ctrl	nd	0 of 6	0 of 18
NITGMVEEKGTTTKNIA	EGEFRCG	QQYSRLPLS	En_Gibbs	0.79	6 of 6	0 of 18
KSRQSVLYESINKNSVA	WASLRES	QQYHRLPLS	Ctrl	nd	0 of 6	1 of 18
KSSKSVLYESRGKNSVA	WASTRDS	QQPHRLPLS	Ctrl	2.30	1 of 6	0 of 18
ALALTLHQNESNQSNIA	QVMEREV	QQYNRLPLG	En_Gibbs	2.22	6 of 6	1 of 18
FITYQQDQTGLQRNAIA	QVNLKEN	QQYGRLPFA	En_Gibbs	nd	0 of 6	1 of 18
KVSMQQLYSSRNKNQVA	DASTRES	QQYHRLPLS	GP_Gibbs	0.16	6 of 6	1 of 18
KLSQSWLYESRNKNSVA	EASTRCS	QQYHRLPLS	GP_Gen	-0.10	6 of 6	0 of 18
KLSQSWGYQSRNKNSVA	NASTRED	QQYHRLPLS	GP_Gibbs	-0.09	6 of 6	0 of 18
KVLQEMLYESRMANSVA	NASQREE	QQYHRLPLS	GP_Gibbs	0.40	6 of 6	0 of 18
KSQIGQWYEDRNKNSVA	SASTREE	QQYHRLPLS	GP_Gibbs	-0.21	6 of 6	1 of 18
FLAYALDQDGLAKNNIA	QTNLLEN	QQYERLPLA	En_Gibbs	1.74	5 of 6	1 of 18
KVYPSHLYESRNKNSVA	QASTRES	QQYHRLPLS	GP_HC	0.40	6 of 6	1 of 18
KVSPEWEYESRNKASVA	HASTRES	QQYHRLPLS	GP_Gibbs	nd	0 of 6	0 of 18
KSSQSVLYMERNSNSVA	GASTRES	QQYHRLPLS	Ctrl	0.24	6 of 6	2 of 18
MSKQSVLYESRNKNSVA	WASTRES	QQYHRLPLS	Ctrl	2.59	4 of 6	1 of 18
KNSQSVLYESRNKNSVA	AASTREK	QQYHRLPLS	Ctrl	0.54	6 of 6	0 of 18

The 5 strongest on average among those seen in every replicate, once more:

{"CDR-L1": "KSSQSWWYESRNKNSVA", "CDR-L2": "GASTRES", "CDR-L3": "QQYHRLPLS", "group": "GP_HC", "mean, log10 nM": "-0.41", "seen in": "6 of 6", "control signals": "0 of 18"}
{"CDR-L1": "KLSQSTLYESRNQNSVA", "CDR-L2": "NASTRES", "CDR-L3": "QQYHRLPLS", "group": "GP_HC", "mean, log10 nM": "-0.33", "seen in": "6 of 6", "control signals": "0 of 18"}
{"CDR-L1": "KLSQSVLYESRNKNSVA", "CDR-L2": "NASTRES", "CDR-L3": "QQYHRLPLM", "group": "GP_Gen", "mean, log10 nM": "-0.28", "seen in": "6 of 6", "control signals": "1 of 18"}
{"CDR-L1": "KVSPSWLYESRNKNSVA", "CDR-L2": "DASTRES", "CDR-L3": "QQYHRLPLS", "group": "GP_Gen", "mean, log10 nM": "-0.22", "seen in": "6 of 6", "control signals": "1 of 18"}
{"CDR-L1": "KSQIGQWYEDRNKNSVA", "CDR-L2": "SASTREE", "CDR-L3": "QQYHRLPLS", "group": "GP_Gibbs", "mean, log10 nM": "-0.21", "seen in": "6 of 6", "control signals": "1 of 18"}

Values of this round are not directly comparable with the first-round values of the same sequences.
As a blank, each scFv also met three strains without target: over all light chain designs, 4% of these pairings were detected, typically at 2.64 and seldom below 1.59. The control count says in how many pairings with the empty strains this scFv gave a signal.
In the paper, a design with two or fewer of six values counts as a poor binder.

The measurements come from Li et al. 2023 (doi:10.1038/s41467-023-39022-2) through the FLAb antibody collection.